The entries are a selection whose mix differs from that of the whole data set.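 96-well plates, one dose, 48 hours. Percent growth reported; active if below 10.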 Calls of active or inactive are those of the source.
Tests used:
Test in all cases: NCI-60 one-dose screen, 48 h (100 = growth as untreated, 0 = no growth, -100 = all killed)
Settings in all cases: 10 µM unless noted
[1] = test system: MOLT-4 leukemia
[2] = test system: SR leukemia
[3] = test system: RPMI-8226 leukemia
[4] = test system: OVCAR-5 ovarian
[5] = test system: OVCAR-4 ovarian
[6] = test system: SK-OV-3 ovarian
[7] = test system: IGROV1 ovarian
[8] = test system: OVCAR-3 ovarian
[9] = test system: HS 578T breast
[10] = test system: NCI/ADR-RES ovarian
[11] = test system: T-47D breast
[12] = test system: BT-549 breast
[13] = test system: MDA-MB-435 melanoma
[14] = test system: SW-620 colon
[15] = test system: MCF7 breast
[16] = test system: HCT-116 colon
[17] = test system: HCC-2998 colon
[18] = test system: KM12 colon
[19] = test system: OVCAR-8 ovarian

Measured: growth

CC(C)c1nc(Nc2ccccc2)n(P(=O)(N(C)C)N(C)C)n1
inactive: [1] 101% | [2] 99.2% | [3] 103% | [4] 101% | [5] 91.2% | [6] 96.9% | [7] 109% | [8] 111% | [9] 97.3% | [10] 103% | [11] 101% | [12] 104% | [13] 113% | [14] 105% | [15] 92.4% | [16] 99.7% | [17] 108% | [18] 107%

CC(/C=N/N=C(\N)N[N+](=O)[O-])=N\N=C(/N)N[N+](=O)[O-]
inactive: [1] 113% | [2] 128% | [3] 95.6% | [19] 104% | [4] 100% | [5] 99.5% | [6] 109% | [7] 113% | [8] 116% | [11] 99.7% | [12] 107% | [13] 110% | [14] 103% | [15] 94.1% | [16] 103% | [17] 100% | [18] 110%

O=C(O)CCc1ccc(N(CCCl)CCCl)cc1
inactive: [1] 80.7% | [2] 45% | [3] 93.8% | [19] 88.8% | [4] 103% | [5] 100% | [6] 106% | [7] 85.7% | [8] 98.8% | [10] 99.9% | [11] 108% | [12] 87.8% | [13] 105% | [14] 85.1% | [15] 90.5% | [16] 105% | [17] 101% | [18] 104%

O=P(O)(NCCCO)N(CCCl)CCCl
inactive: [1] 104% | [2] 122% | [3] 95.3% | [19] 89% | [4] 88.8% | [5] 104% | [6] 89.7% | [8] 116% | [9] 107% | [10] 98.4% | [11] 98.6% | [13] 86.9% | [14] 107% | [15] 99.3% | [16] 101% | [18] 111%
active: [17] -21.9%

S=C(Nc1ccccc1)N(CCCl)CCCl
inactive: [1] 95.3% | [2] 91.9% | [3] 91.7% | [19] 97.5% | [4] 97.2% | [5] 109% | [6] 113% | [7] 108% | [8] 114% | [10] 105% | [11] 102% | [12] 104% | [13] 98.3% | [14] 99.4% | [15] 96.7% | [16] 105% | [17] 102% | [18] 106%

CCCCOP(N)(=O)OCCCC
inactive: [1] 100% | [2] 99.5% | [3] 106% | [19] 99% | [4] 107% | [5] 110% | [6] 108% | [7] 105% | [8] 112% | [10] 104% | [11] 96.8% | [12] 105% | [13] 106% | [14] 96.8% | [15] 95% | [16] 104% | [17] 108% | [18] 115%

O=C(c1ccc(F)cc1)N(CCCl)CCCl
inactive: [1] 92.5% | [2] 98% | [3] 102% | [19] 100% | [4] 104% | [5] 110% | [6] 95.6% | [7] 107% | [8] 114% | [10] 99.6% | [11] 93.9% | [12] 105% | [13] 103% | [14] 99.3% | [15] 94.4% | [16] 105% | [17] 97.1% | [18] 106%

O=[N+]([O-])c1ccc(SSc2ccc([N+](=O)[O-])cc2[N+](=O)[O-])c([N+](=O)[O-])c1
inactive: [1] 96.7% | [2] 96.4% | [3] 91% | [19] 99.7% | [5] 103% | [6] 99.8% | [7] 101% | [8] 112% | [9] 108% | [10] 98.6% | [11] 88.4% | [12] 102% | [13] 106% | [14] 29% | [15] 95% | [16] 13.9% | [18] 106%

CN(C)C(=O)Oc1ccc(/C=N/NC(N)=S)nc1
inactive: [1] 89.5% | [2] 67.5% | [3] 93.1% | [4] 92.2% | [5] 66% | [6] 88.1% | [7] 90.2% | [8] 86.9% | [9] 109% | [10] 94.1% | [11] 99.1% | [12] 95.9% | [13] 94.7% | [14] 92.5% | [15] 85.1% | [16] 93.5% | [17] 97.8% | [18] 91.7%

— PubChem BioAssay (NCI)
